Laboratory results as given in PubChem BioAssay (NCI).
The entries are a selection whose mix differs from that of the whole data set. Some salts and complexes are drawn in separate pieces, as the source files them; their charges need not balance. Where a structure was tested more than once in an assay, its records may differ in their call. Active and inactive are the calls of the source. Rule as the data show it: active = growth inhibition above about 70%; inactive = the rest.

Test: NCI Yeast Anticancer Drug Screen. Data for the rad18 strain (AID 177)
Conditions: S. cerevisiae rad18 mutant growth inhibition, hits give high values
Procedure: Growth inhibition of yeast strains with defined genetic alterations is measured as a screen for potential anti-cancer activity. Selected strains with alterations in DNA damage repair or cell cycle control were exposed to compounds and growth inhibition was measured relative to vehicle treated controls. The strain used in this assay is rad18

SMILES	growth inhibition (at 1.2 µM)	growth inhibition (at 3.7 µM)	growth inhibition (at 11.0 µM)	growth inhibition (at 33.0 µM)	growth inhibition (at 100.0 µM)
Cc1c2ccccc2cc2ccccc12.O=[N+]([O-])c1cc([N+](=O)[O-])c(O)c([N+](=O)[O-])c1	inactive: 1%	inactive: 9%	inactive: 28%	active: 79%	active: 97%
[Au].[C-]#N.[C-]#N	inactive: 5%	inactive: 2%	inactive: -20%	inactive: 41%	inactive: 8%
Cc1cc2ccccc2cc1C.O=[N+]([O-])c1cc([N+](=O)[O-])cc([N+](=O)[O-])c1	inactive: -1%	inactive: -3%	inactive: 0%	inactive: 14%	inactive: 55%
O=[N+]([O-])C(F)(COCC(O)CO)[N+](=O)[O-] (stereo not given)	inactive: 56%	active: 79%	active: 85%	active: 93%	active: 94%
[Au+].[N-]=[N+]=N.c1ccc([PH+](c2ccccc2)c2ccccc2)cc1	inactive: 14%	active: 92%	active: 98%	active: 92%	active: 88%
Cc1ccc2ccc3ccc4ccccc4c3c2c1.O=C1c2cc([N+](=O)[O-])ccc2-c2c1cc([N+](=O)[O-])cc2[N+](=O)[O-]	inactive: 7%	inactive: 18%	inactive: 44%	active: 71%	active: 83%
[Au+].[Au+].c1ccc([PH+](c2ccccc2)c2ccccc2)cc1.c1ccc([PH+](c2ccccc2)c2ccccc2)cc1.n1n[n-]c(-c2nnn[n-]2)n1	inactive: 24%	inactive: 57%	active: 99%	active: 99%	active: 98%
COc1ccccc1N.O=[N+]([O-])c1cc([N+](=O)[O-])cc([N+](=O)[O-])c1	inactive: 0%	inactive: 13%	active: 78%	active: 99%	active: 99%
